The source of these data is publication PMC3036719.

The assay addresses fibrinogen fragment D (human). The assay can be described thus: bacterial cell adhesion ELISA; wells coated with 1 µg human fibrinogen or fragment D, blocked with 20 mg/mL BSA; 3×10^8 leptospires, 1 h at 30°C; adherent cells fixed with formaldehyde and detected with a rabbit antibody to L. biflexa; increase over wild-type L. biflexa.

Take “LigB from L. interrogans expressed on L. biflexa (ligB transformant) (natural protein)”: the percent increase of adhesion over wild-type L. biflexa amounted to 73%.
